Values quoted from earlier work as cited in US11332716B2, “Methods and compositions for producing pancreatic beta cells” (The Regents of the University of California, priority 2015, dated 2022).

By UniProt entry, the sequences of proteins in these tests, tags left out.
UniProt Q13547, whole entry, species assumed: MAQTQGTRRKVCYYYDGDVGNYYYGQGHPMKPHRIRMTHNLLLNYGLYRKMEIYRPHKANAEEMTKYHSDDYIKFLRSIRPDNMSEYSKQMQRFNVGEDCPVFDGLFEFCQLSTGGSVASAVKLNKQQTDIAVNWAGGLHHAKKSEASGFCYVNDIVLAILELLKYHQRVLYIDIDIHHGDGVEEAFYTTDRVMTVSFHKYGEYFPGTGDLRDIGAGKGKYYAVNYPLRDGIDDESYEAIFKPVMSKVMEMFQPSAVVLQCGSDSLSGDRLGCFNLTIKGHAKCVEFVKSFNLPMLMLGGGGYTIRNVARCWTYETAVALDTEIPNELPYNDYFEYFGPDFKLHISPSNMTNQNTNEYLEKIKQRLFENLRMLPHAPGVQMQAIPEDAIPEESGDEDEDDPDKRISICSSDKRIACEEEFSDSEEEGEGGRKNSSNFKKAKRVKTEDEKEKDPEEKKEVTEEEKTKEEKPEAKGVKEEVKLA

Target: HDAC1 (Homo sapiens, UniProt Q13547)
Details: cited from earlier work

For “4,5:8,9-Dianhydro-1,2,6,7,11-pentadeoxy-D-threo-D-ido-undeca-1,6-dienitol [Depudecin]”, the IC50 is given as about 4.7 µM.
